Laboratory results: patent publication US20060094660A1, “Inhibitor of the shh signalling patway and a testosterone supressing agent for the treatment of cancer” (priority 2002, published 2006)
Values joined by “and” are separate entries in the source; they are usually repeats but may differ in a detail not shown here. Identical values can stand only once.

How the values were obtained:
ventral prostate (VP) [1] = tested on: ventral prostate (VP)
Experimental: Serum-free organ culture of P0 Wistar rat VPs was performed as previously described (Sugimura et al., 1996). […] The two-dimensional area and perimeter of organs was measured from live captured images using NIH Image software.
P0 VPs were grown in vitro for five days in the presence (+) or absence (−) of T and with (+) or without (−) 100 μg ml^−1 anti-SHH antibody (5E1) (FIG. 4A), after which their two-dimensional area was measured (FIG. 4B).
Effect of exogenous SHH on VP growth and branching. The effects of adding recombinant SHH to VPs grown in vitro was examined (FIG. 10). VPs were grown for 3 days −/+T and −/+recombinant SHH protein (n=6).

ventral prostate (VP) [2] = assay: Organ culture of P0 rat VPs: BrdU incorporation, mitotic/proliferative index; format: cell-based
Experimental: Anti-CK14 antibody was diluted at 1:100, and anti-p63 antibody (Santa Cruz Biotechnologies Inc., USA) was diluted at 1:500. […] Mitotic indices were calculated by counting the number of pan-cytokeratin-positive epithelial cells that were also BrdU-positive.
[…] […] The percentage of proliferating cells was scored from three images of the peripheral tips of the organs (distal), and three images of the ducts closest to the urethra (proximal), totalling 27 distal and proximal counts for each treatment group.
The proliferative index of the epithelial and mesenchymal cell compartments was calculated for VPs cultured −/+T and −/+SHH after the addition of BrdU (FIG. 10D).

CC1=C2C[C@H]3[C@@H](CC=C4C[C@@H](O)CC[C@@]43C)[C@@H]2CC[C@]12O[C@@H]1C[C@H](C)CN[C@H]1[C@H]2C [Cy, cyclopamine]
growth reduction (two-dimensional area) (ventral prostate (VP) [1]): 16% and 27% | reduction in T-induced growth of VPs (ventral prostate (VP) [1]): 50% | percentage of proliferating cells in ducts proximal to the UR (ventral prostate (VP) [2]): No significant difference
